Measured values published in patent US5770623A, “Argine antagonists for inhibition of systemic hypotension associated with nitric oxide production or endothelial derived relaxing factor” (Board of Regents, The University of Texas System, priority 1995, dated 1998).

Columns and labels:
[1] = test system: N=C(N)NCCC[C@H](N)C(=O)O; test: cells, lysate or membranes named; conditions: other: utilization of L-arginine by the NO-forming enzyme pathway; Lineweaver-Burke; pH 8.0
[2] = test system: murine brain endothelial cells (MBEC); test: Nitrite production by MBEC exposed to cytokines / immunomodulators (Griess assay); type: cell-based; conditions: IFN 100 U/ml, TNF 500 U/ml, IL-1 10 U/ml, endotoxin 1 μg/ml; 48 hours
Protocol: Endothelial cells--MBEC's were isolated from murine brain microvessels and cultured on gelatin-coated tissue culture dishes in DME/F12 media supplemented with 2% PPPHS, 5% FBS (Hyolone), 50 μg/ml ECGF (Biomed Tech), and 10 U/ml heparin (Sigma) as previously described (Belloni et al. 1989). The endothelial derivation of MBEC's was determined by the presence of a non-thrombogenic surface to platelets and immunofluorescent staining for Factor VIII related antigen. MBEC's were used between passage 6-9 for all experiments.
Nitrite Assay--MBE cells were cultured on gelatin-coated well plates (Corning) in 100 μl of culture medium and treated with cytokines at 3 days post-confluence. After 48 hours, nitrite production was determined by a colorimetric assay. […] All treatments were performed in triplicate and data presented as the mean value±standard deviation. […]
The accumulation of nitrites in the culture medium was also found to occur in a time dependent manner with the first detectable increase at 8 hours after addition of TNF and IFN (FIG. 3). […] Although both TNF and IFN have been reported to cause morphological alterations in human umbilical cord endothelial cells, no changes in the gross morphology of these murine microvascular endothelial cells was detected under these conditions.

Work on “EMT6 enzyme system (NO formation from L-arginine) (Mus musculus)” yielded a Km [1] of 61.6 µM.
Il-2: interleukin-2 was tested, and the “effect on nitrite production by MBEC” value [2] was “Neither muramyl dipeptide (MDP) or Il-2 alone, or in combination with IFN effected nitrite production”.
